Earlier results on one substance are cited in patent US10889565B2, “4-hydroxy-3-sulfonylpyridin-2(1H)-ones as APJ receptor agonists” (BRISTOL-MYERS SQUIBB COMPANY, priority 2016, dated 2021).

Protein sequences, listed by entry. Tags and fused reporters are not part of them. Lines headed by an entry give the natural chain unless they say otherwise; changes in a name come on top.
UniProt P35414: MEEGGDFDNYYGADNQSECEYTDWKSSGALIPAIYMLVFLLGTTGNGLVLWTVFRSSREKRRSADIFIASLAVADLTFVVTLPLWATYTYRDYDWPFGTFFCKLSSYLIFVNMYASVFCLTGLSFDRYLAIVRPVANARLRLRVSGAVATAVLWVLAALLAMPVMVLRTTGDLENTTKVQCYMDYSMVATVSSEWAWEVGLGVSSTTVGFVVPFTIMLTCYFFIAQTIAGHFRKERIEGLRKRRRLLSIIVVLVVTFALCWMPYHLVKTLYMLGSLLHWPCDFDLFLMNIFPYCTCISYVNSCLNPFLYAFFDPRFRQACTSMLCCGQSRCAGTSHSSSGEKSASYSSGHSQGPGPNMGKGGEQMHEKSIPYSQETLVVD

For this data set, the target named is APJ receptor (Homo sapiens, UniProt P35414). Conditions: reported, Pitkin et al. 2010; cited from earlier work.

In the case of Apelin, the binding affinity entry is listed as “sub-nanomolar range”.
